The chains behind the UniProt entries cited, without tags or fusion partners. Residues count along the entry.
UniProt Q16552, 24-155 limits assumed: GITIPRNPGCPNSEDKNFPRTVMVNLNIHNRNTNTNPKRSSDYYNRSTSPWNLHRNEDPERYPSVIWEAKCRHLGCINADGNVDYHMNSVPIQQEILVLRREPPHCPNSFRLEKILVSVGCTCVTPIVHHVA
UniProt Q16552, 20-155 limits assumed: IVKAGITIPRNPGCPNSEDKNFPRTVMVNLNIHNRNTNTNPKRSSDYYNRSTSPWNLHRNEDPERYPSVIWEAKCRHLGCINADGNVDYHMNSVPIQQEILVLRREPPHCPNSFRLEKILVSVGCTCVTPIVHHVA

In patent US20230227437A1, “IMMUNOMODULATOR” (priority 2020, published 2023):

What was measured:
human IL-17A (hIL-17A) = human IL-17A (hIL-17A) (Homo sapiens, UniProt Q16552); assay: IL-17A enzyme-linked immunosorbent assay (competitive ELISA, receptor-ligand binding); settings: read-out: ELISA IC50, IL-17A coated, 16 nM IL-17R
Method: The inhibition of receptor-ligand binding by human IL-17A (hIL-17A) inhibitors was detected by competitive ELISA. A 96-well plate was inoculated 0.2 μg/ml IL-17 (Sino Biological Inc. Cat #12047-H07B) for incubation at 37° C. for 30 min, 100 μL for per well. The 96-well plate was washed four times with phosphate buffered saline (PBS) containing Tween-20 (PBST, 0.05% Tween-20), 200 μL for per well each time. 200 μL of 5% skim milk were added into the 96-well plate for incubation on a shaker at 25° C. for 30 min. The 96-well plate was washed four times with PBST (0.05% Tween-20), and added with 89 μL of PBST and 1 μL of a compound to be measured (100×), in which a concentration the compound to be measured (100×) was 0.003 μM-30 μM. The mixture was mixed evenly and incubated at 25° C. for 10 min. The mixture was added with 10 μL of 16 nM IL-17R, followed by incubation at 25° C. for 30 min. After washing the 96-well plate 4 times, 100 μL of anti-Fc tag horseradish peroxidase (HRP) coupled antibody were added for incubation on a shaker at 25° C. for 30 min. After washing the 96-well plate 4 times, 100 μL of 3,3′,5,5′-tetramethylbenzidine (TMB) substrate solution were added to the 96-well plate for incubation away from light at 25° C. After addition of 20% HCl, an absorbance was measure by a microplate reader at 450 nm.
The compounds prepared according to the above method were assayed for human IL-17A inhibitory activity.

hIL-17A [1] = biological target: T1, hIL-17A (Homo sapiens, UniProt Q16552); assay: Inhibition of hIL-17A-induced chemokine GROα/CXCL1 production in HT-29 cell; assay type: cell-based; settings: read-out: HT-29 IC50; GROα/CXCL1 in HT-29 cells, 30 ng/mL hIL-17A, 48 h
Method: Human colorectal adenocarcinoma cell HT-29 was inoculated to a 96-well plate (5×10^4 for per well), and incubated at 37° C. on an incubator overnight. A mixture of 30 ng/mL hIL-17A protein (R&D, #317-ILB) with gradient concentrations of IL-17A small molecule inhibitors or with 0.3 μg/mL positive control IL-17A antibody (R&D, #AF-317-NA) was incubated for 1 h at 37° C., and added into the 96-well plate to incubated with HT-29 at 37° C. for 48 h. A level of GROα in a cell culture supernatant was then detected using an ELISA kit for GROα (Cisbio, #62HCXC1peg).
Inhibitory effect of the compound prepared in Examples on hIL-17A-induced chemokine GROα/CXCL1 production in HT-29 cell was tested according to the methods of Experimental Examples 1 and 2. […] “-” indicated not tested. According to the results, the compounds provided herein have good human IL-17A inhibitory activity and can be effectively used in the treatment of diseases associated with abnormal hIL-17A activity.

hIL-17A [2] = biological target: T1, hIL-17A; assay: Binding to hIL-17A protein through surface plasmon resonance (SPR, Biacore 8K)

## Cc1n[nH]c(C)c1-c1ccc(NC(=O)[C@@H](NC(=O)c2ccnn2C(C)C)C2c3cc(F)cc(F)c3OCC23CC3)cn1 (some centres unmarked)
Human IL-17A (hIL-17A)
  IC50: 507 nM
hIL-17A [1]
  IC50: 986 nM

## Cc1n[nH]c(C)c1-c1ccc(NC(=O)[C@@H](NC(=O)c2nonc2C(C)C)C2c3ccc(F)cc3OCC23CC3)cn1 (some centres unmarked)
Human IL-17A (hIL-17A)
  IC50: 79 nM
hIL-17A [1]
  IC50: 227 nM

## Cc1n[nH]c(C)c1-c1ccc(NC(=O)[C@@H](NC(=O)c2ccnn2C(C)C)C2c3ccc(F)cc3OCC23CC3)cc1 (some centres unmarked)
Human IL-17A (hIL-17A)
  IC50: 193 nM
hIL-17A [1]
  IC50: 55 nM

## Cc1n[nH]c(C)c1-c1ccc(NC(=O)[C@@H](NC(=O)c2ccnn2C(C)C)C(C2CC2)C2CC2)cc1
hIL-17A [2]
  Kd: 1.51 nM
  ka: 11900 M⁻¹ s⁻¹
  kd: 1.8e-05 s⁻¹

## CCc1nonc1C(=O)N[C@H](C(=O)Nc1ccc(-c2c(C)n[nH]c2C)cc1)C1c2ccc(F)cc2OCC12CC2 (some centres unmarked)
Human IL-17A (hIL-17A)
  IC50: 230 nM
hIL-17A [1]
  IC50: 34 nM
